Experimental findings from PubChem BioAssay AID950 (NMMLSC, 2007) are described below.

Sequences of proteins named here, by UniProt entry; tags and fusion partners are left off.
UniProt P10415, whole entry, looked up: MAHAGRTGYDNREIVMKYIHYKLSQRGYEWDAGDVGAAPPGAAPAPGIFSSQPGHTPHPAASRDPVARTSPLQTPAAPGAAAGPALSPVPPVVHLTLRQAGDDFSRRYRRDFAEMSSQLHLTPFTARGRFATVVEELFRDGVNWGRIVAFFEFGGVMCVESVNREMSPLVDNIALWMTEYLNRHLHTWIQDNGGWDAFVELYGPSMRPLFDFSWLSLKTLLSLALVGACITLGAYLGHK

The list shows a part of the results, in another mix than the full data. Calls of active or inactive are those of the source. Rule as the data show it: active = inhibition above about 40%; inconclusive = no clear call, values can overlap the other calls; inactive = below that.

The inhibition is the drop in the measured response relative to a control, in per cent.

This assay addresses Apoptosis regulator Bcl-2 (Homo sapiens) (UniProt P10415). The assay is described as follows: Bcl-2 and Bim peptide interaction disruptors – biochemical, multiplexed, human Bcl-2 family, primary screen (AID 950).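 Also: 0% = no compound wells with probe peptide and 100% = reference peptide inhibitor.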 Particulars: Bead-based flow cytometry, Bim peptide-Bcl-2 binding; at 10 µM; stronger effect = higher value.
Consider `Cc1cc(SC(NC=O)C(Cl)(Cl)Cl)ncn1` (centres undefined), for which the inhibition was inactive: -6%. As for `O=P(Nc1ccccn1)(c1cccc2ccccc12)c1cccc2ccccc12`, the inhibition is inactive: -6%. With `Cc1cc(SC(NC(=O)c2ccccc2)C(Cl)(Cl)Cl)nc(C(C)C)n1` (centres undefined), the inhibition was inactive: -3%. As for `CCC(C)N(CC(C)C)C(=S)SC(NC(C)=O)C(Cl)(Cl)Cl` (centres undefined), the inhibition is inactive: 5%.

As for `COP1(=S)c2c(C)nn(CCC#N)c2N=C(c2ccc(F)cc2)N1C` (centres undefined), the inhibition is inactive: -9%.

On to `O=C(COc1ccccc1)OC1CN2CCC1CC2` (centres undefined), for which the inhibition is inactive: 1%.

Take `COc1ccc(N/C(=N/P(=O)(N2CCOCC2)N2CCOCC2)N2CCOCC2)cc1`: the inhibition was inactive: 1%. Regarding `Cc1c2c(nc3ccccc13)SC(C(Cl)Cl)C2` (centres undefined), the inhibition was inactive: -4%.

As to `O=C(OC1CN2CCC1CC2)C12CC3CC(CC(C3)C1)C2` (centres undefined), the inhibition is inactive: -9%.

As for `Cc1cc(=O)[nH]c(N[N+](=O)[O-])n1`, the inhibition is inactive: -2%. For the molecule `COc1ccc2nc(NP(=O)(c3ccccc3)c3ccccc3)sc2c1`, the inhibition was inactive: -2%. On to `ClCCSc1nnc(-c2cccnc2)o1`, for which the inhibition is inactive: -5%.

As to `CC(C)NC(=O)NP(=O)(Oc1ccccc1)Oc1ccccc1`, the inhibition is inactive: -4%. `CCN(CC)C(=S)SC(NC=O)C(Cl)(Cl)Cl` (centres undefined): the inhibition is inactive: -2%. With `O=[N+]([O-])c1cc([N+](=O)[O-])c(-c2ccn[nH]2)s1`, the inhibition is inactive: 0%.

For `Cc1ccc2nc3c(c(C)c2c1)CC(C(Cl)Cl)S3` (centres undefined), the inhibition is inactive: -6%. Consider `CCOP1(=S)c2c(C)nn(CCC#N)c2N=C(c2ccc(F)cc2)N1C` (centres undefined), for which the inhibition was inactive: -9%. For `O=[N+]([O-])c1ccc2c(c1)nnn2O`, the inhibition is inactive: -2%. For the molecule `CCOP1(=S)c2c(C)nn(CCC#N)c2N=C(c2ccccc2F)N1C` (centres undefined), the inhibition is inactive: -9%.

Take `O=P(Nc1nccs1)(Oc1ccccc1)Oc1ccccc1`: the inhibition was inactive: 1%. Take `O=P(Nc1nccs1)(c1ccccc1)c1nc2ccccc2s1` (centres undefined): the inhibition was inactive: -11%.

Regarding `Cc1ccc(NCCc2c([N+](=O)[O-])cc([N+](=O)[O-])cc2[N+](=O)[O-])cc1`, the inhibition was inactive: 2%. As for `COc1cc(C2NCCC3(OCCO3)C2(C)C)cc(OC)c1OC` (centres undefined), the inhibition was inactive: 1%. To `CCOP(=O)(Nc1cccc2ccccc12)OCC` belongs inactive: -4%; to `COc1cc(C(=O)NCC2(N3CCOCC3)CCCCC2)cc(Cl)c1OC(C)C`, inactive: -3%; to `Cc1cccc(OCC(=O)OC2CN3CCC2CC3)c1` (centres undefined), inactive: 0%. Take `CN(C(=O)Cc1ccc(Cl)c(Cl)c1)[C@@H]1CCCC[C@H]1N1CCCC1`: the inhibition is inactive: -2%. Regarding `CC(C)/C=N\N=C(\N)N[N+](=O)[O-]`, the inhibition was inactive: -2%. Regarding `O=P1(Nc2ccccn2)COc2ccccc2OC1`, the inhibition was inactive: -8%.

`Clc1n[nH]nc1-c1nn[nH][15n]1`: the inhibition was inactive: -8%. Under `O=P1(Nc2ncccn2)COc2ccccc2OC1` stands inactive: -7%; under `Cc1ccc(OCC(=O)OC2CN3CCC2CC3)cc1` (centres undefined), inactive: -6%; under `O=P1(Nc2ccc(Br)cn2)COc2ccccc2OC1`, inactive: -4%. To `Cc1nn(-c2ccccc2)c2c1P(=O)(N1CCOCC1)N(C)C(c1ccccc1)=N2` (centres undefined) belongs inactive: 0%; to `CC1CCC(C(C)C)C(OP(=O)(Nc2ccccn2)c2ccccc2)C1` (centres undefined), inactive: 1%; to `CN(C)C1(CNC(=O)c2ccc(S(C)(=O)=O)cc2)CCCCC1`, inactive: 0%. For `CC(=O)NC(SC(=S)N(C)C)C(Cl)(Cl)Cl` (centres undefined), the inhibition is inactive: -1%.

For `O=C(OC1CN2CCC1CC2)c1cccc(Cl)c1` (centres undefined), the inhibition was inactive: 2%. To `C(Cc1nn[nH]n1)Cc1nn[nH]n1` belongs inactive: -1%; to `O=P(Nc1ccccn1)(c1ccc(Br)cc1)c1ccc(Br)cc1`, inactive: -4%. As to `O=P(Nc1nccs1)(c1ccccc1)c1ccccc1`, the inhibition is inactive: -6%. Turning to `CC(C)C(=O)NC(Sc1ccccc1)C(Cl)(Cl)Cl` (centres undefined), the inhibition was inactive: -8%.

Consider `c1nnnn1CCn1cnnn1`, for which the inhibition was inactive: -5%. As for `CC(=O)Nc1ccc(Oc2c([N+](=O)[O-])cc([N+](=O)[O-])cc2[N+](=O)[O-])cc1`, the inhibition is inactive: -1%. Take `O=P1(Nc2nc3ccc(Cl)cc3s2)COc2ccccc2O1` (centres undefined): the inhibition is inactive: -3%. `CCOc1ccc(C2=NCC(CBr)S2)cc1` (centres undefined): the inhibition is inactive: -1%. Under `CC(C)(C)C(=O)NC(Sc1ccccc1)C(Cl)(Cl)Cl` (centres undefined) stands inactive: 0%; under `CCC(=O)N1C2C3N(C(=O)CC)C1C1N(C(=O)CC)C(C(N1C(=O)CC)N3C(=O)CC)N2C(=O)CC`, inactive: 7%; under `COC(=O)c1cc2c(s1)N=C(c1ccccc1)N(C)P2(=O)N1CCOCC1` (centres undefined), inactive: -6%. Under `CC(=O)NC(SC(=S)N(CC(C)C)CC(C)C)C(Cl)(Cl)Cl` (centres undefined) stands inactive: 1%; under `Cc1ccc(OP(=O)(Nc2ccccn2)Oc2ccc(C)cc2)cc1`, inactive: 0%; under `O=c1c2cc([N+](=O)[O-])ccc2[nH]c2c([N+](=O)[O-])cc([N+](=O)[O-])cc12`, inactive: -2%. Consider `c1ccc(-c2nn[nH]n2)c(-c2nn[nH]n2)c1`, for which the inhibition was inactive: -1%. With `CCOC(=O)NC(Sc1ccccc1)C(Cl)(Cl)Cl` (centres undefined), the inhibition is inactive: -2%. Consider `O=C(NC1CCS(=O)(=O)C1)NP(=S)(Oc1ccccc1)Oc1ccccc1` (centres undefined), for which the inhibition was inactive: -10%. For the molecule `CCNC(=S)/N=C(\N)N[N+](=O)[O-]`, the inhibition was inactive: -1%. For `CCN(N=Nc1nonc1N)c1nonc1N`, the inhibition is inactive: -9%.

Turning to `Cc1cc(SC(NC(=O)c2ccc(F)cc2)C(Cl)(Cl)Cl)ncn1` (centres undefined), the inhibition is inactive: -11%. As to `CCOP(=O)(Nc1ccccc1)OCC`, the inhibition was inactive: -1%. Turning to `Oc1ccccc1CNc1ccccn1`, the inhibition is inactive: -11%. As for `O=C(NC(Sc1ccncn1)C(Cl)(Cl)Cl)c1ccccc1` (centres undefined), the inhibition was inactive: 0%. Consider `Cc1c2non([O-])c-2c(C)[n+](=O)[n+]1[O-]`, for which the inhibition was inactive: -3%. Consider `CC(C)CC(=O)NC(Sc1ccc(Cl)cc1)C(Cl)(Cl)Cl` (centres undefined), for which the inhibition is inactive: 0%. Under `Cc1ccc(N/C(=N/P(=O)(N2CCOCC2)N2CCOCC2)N2CCOCC2)cc1` stands inactive: 0%; under `NC(=O)c1cc([N+](=O)[O-])cc([N+](=O)[O-])c1N`, inactive: -2%; under `CN1CCCC(OC(=O)C(c2ccccc2)c2ccccc2)C1` (centres undefined), inactive: 17%. As to `Clc1ccc(Cl)c(NC2=NCC(CBr)S2)c1` (centres undefined), the inhibition is inactive: -3%. As to `COc1ccccc1OP(=O)(Nc1ccc(C)cn1)Oc1ccccc1OC`, the inhibition is inactive: 2%. Turning to `CCN(/C(=N/P(=O)(N1CCOCC1)N1CCOCC1)N1CCOCC1)c1ccc(OC)cc1`, the inhibition was inactive: 0%. Turning to `CC1CCN(C(=O)Oc2c(Cl)cc(Cl)c3cccnc23)CC1`, the inhibition is inactive: -3%.

In the case of `CC(C)=N/N=C(\N)N[N+](=O)[O-]`, the inhibition is inactive: -6%. In the case of `CN(C)C(=O)OCCc1n(C)cc[n+]1C`, the inhibition was inactive: -8%. Consider `COc1ccc(C2=NCC(CBr)S2)cc1` (centres undefined), for which the inhibition is inactive: -4%. In the case of `Cc1ccc(NP(=O)(Oc2ccccc2)Oc2ccccc2)nc1`, the inhibition is inactive: -3%. To `O=[N+]([O-])c1cc([N+](=O)[O-])c(CCNc2ccccc2)c([N+](=O)[O-])c1` belongs inactive: 0%. Consider `CCc1nc2c(n1)c1c(non1O)c1c2no[n+]1[O-]`, for which the inhibition is inactive: 20%.

Consider `CC(=O)N1C2C3N(C(C)=O)C1C1N(C(C)=O)C(C(N1C(C)=O)N3C(C)=O)N2C(C)=O`, for which the inhibition was inactive: -3%. In the case of `O=[N+]([O-])c1cccc2n[nH]nc12`, the inhibition is inactive: -10%. Consider `O=[N+]([O-])c1ncn(CCn2ncnc2[N+](=O)[O-])n1`, for which the inhibition is inactive: -2%.
